One assay deals with HLMVEC. The assay is described as follows: META-rank score, composite of VCAM1, ICAM1 and IL6 in the HLMVEC model. Type of assay: cell-based, human. The conditions noted are these: HLMVEC + TNF-α; lower score = more optimal; 20x HMDB / 5 mM. The protocol:
Summary of results: As described, an ideal treatment is one that addresses the multifactorial pathology of SCD as represented by HLMVEC by reducing disease phenotypes (VCAM1, ICAM1, IL6). The ability of single amino acids and combinations to simultaneously impact these phenotypes was measured by a META-rank score (Tables 17 and 18). META-rank score is a composite measure that considers the optimal impact on all 3 phenotypes (e.g. decrease VCAM1, ICAM1, and IL6) in the HLMVEC model.

The subject of assay [1] is RBCs of healthy whole blood. Briefly: RBC deformability (Elongation Index, LORRCA ektacytometry), ex vivo TBHP oxidation of healthy whole blood. To be noted: healthy donor 2. It counts as cell-based, human. The source says:
Whole blood from healthy African American and/or Hispanic donors was obtained from Research Blood Components, LLC based on the following donor selection criteria: Adult age (between 18 and 50 years), normal BMI (<30), and absence of other confounding clinical conditions. Whole blood from SCD donors were obtained from BioIVT based on the following donor selection criteria: Patients with genotypes HbSS, HbSC, HbS/β^0 and at least 1-2 months gap since last blood transfusion. Whole blood was shipped on ice on the same day as blood draw. Upon receipt, the blood sample was aliquoted and stored in the refrigerator until used for studies.
RBC deformability measurements were conducted with the Laser Optical Rotational Red Cell Analyzer (LORRCA) from RR Mechatronics in a temperature-controlled environment (37° C.). Briefly, an even layer of RBCs suspended in polyvinylpyrrolidone (PVP) is subjected to shear stress gradient (0.3 to 30 Pa) through two concentric cylinders and the resulting changes in RBC shape or deformability are measured by a laser beam diffraction pattern. The captured images of RBC shape in response to increasing shear stress are then analyzed by the LORRCA program to calculate Elongation Index (EI).
Healthy RBCs have higher deformability ≥0.5 EI and SCD RBCs have lower deformability or EI values as studied by LORRCA ektacytometry in the field. […] The induced hemolysis model in this disclosure involves use of tert-butyl hydroperoxide (TBHP) to lower EI of RBCs.
The ex vivo hemolysis study disclosed here involves overnight treatment of whole blood with vehicle as a control and specific amino acids followed by rapid oxidation (5 min) with TBHP. Method for oxidation of whole blood with tert-butyl hydroperoxide has been used in prior literature (Diederich L, et al, Front Physiol. 2018 May 11; 9:332). RBC deformability or shape changes are then measured with LORRCA ektacytometry.
Whole blood aliquots stored in the fridge were brought up to room temperature while gently shaking on a rocker at low speed for an hour to ensure gradual and uniform suspension of red blood cells prior to deformability measurements. Vehicle control used in the study was 1× Dulbecco's […]) and amino acids disclosed herein were added (at either final 10× or 2.5 mM concentration as indicated) to corresponding vehicle and amino acid treatment conditions. The samples were then incubated overnight at 37° C. The next day, 25 μl of whole blood was taken from each treatment condition and added to 5 mL Elon ISO viscous solution from RR Mechatronics. The sample was inverted 15-20 times to ensure proper mixing of the treated RBCs with the Elon ISO solution followed by loading the sample on LORRCA and capturing RBC deformability or shape measurements over the applied shear gradient. The remaining whole blood treatments were returned to incubator (37° C.) until deformability measurements were completed for all treatments. To the remaining whole blood treatment samples, TBHP solution (5.0-6.0 M in Decane, Sigma) was added at 2.5 mM final concentration from a 100 mM freshly prepared stock and incubated for further 5 min at 37° C. 25 μl of this TBHP-treated sample was immediately removed at the end of the 5 min incubation and added to the Elon ISO solution for RBC deformability measurement after oxidation. Included in the Tables 13-15 are EI measurements at ½ EImax shear stress 1.69 Pa and EImax shear stress 30 Pa from these studies and FIG. 1 captures EI measurements for all shear stress points for the indicated treatment conditions.

Where [2] appears, read: 10X amino acids/2.5 mM Nac, Cit, Car + 2.5 mM TBHP.
The mark [3] stands for this setting: + 2.5 mM TBHP, 10X amino acids/2.5 mM Nac, Cit, Car.

`N=C(N)NCCC[C@H](N)C(=O)O` [Arg]: the “Meta-Rank (Table 18)” value in the assay on HLMVEC was 12.5.
`N=C(N)NCCC[C@H](N)C(=O)O` [Arginine]: in assay [1] (setting [2]), the “EI Fold Change Relative to Vehicle EImax (30 Pa)” value came out at 1.00, the “EI Fold Change Relative to Vehicle ½ EImax (1.69 Pa)” value is listed as 1.02, the “Elongation Index (EI) EImax (30 Pa)” value is given as 0.308 and the “Elongation Index (EI) ½ EImax (1.69 Pa)” value amounted to 0.087. Besides, in assay [1] (+ 2.5 mM TBHP), the “EI Fold Change Relative to Vehicle EImax (30 Pa)” value is on record as 2.14 fold and the “EI Fold Change Relative to Vehicle ½ EImax (1.69 Pa)” value came out at 1.35 fold. Besides, in assay [1] (setting [3]), the “Elongation Index (EI) EImax (30 Pa)” value was 0.251 and the “Elongation Index (EI) ½ EImax (1.69 Pa)” value was 0.057.
